Values quoted from earlier work, collected in patent publication US20230124634A1, “ANTIBACTERIAL COMPOSITION” (CONOPCO, INC., D/B/A UNILEVER, priority 2020, published 2023).

Settings: cited from earlier work

For Silver oxide, which “Ksp (mol/L in water at 25° C.)” value is on record?
Its value is 2.1e-08 mol/L.

For Silver salicylate, which “Ksp (mol/L in water at 25° C.)” value is on record?
Its value is 1.5e-05 mol/L.
